Values quoted from earlier work, collected in patent publication US9173950B2, “Vitamin D-ghrelin conjugates” (Extend Biosciences, Inc., priority 2012, dated 2015).

Settings: humans; cited from earlier work

## vitamin D
  time retained in circulation by DBP, on average: 30 days
